Earlier results as cited in publication PMC3933250 (Annals of Oncology, 2014).

Test system: R/M-SCCHN
Conditions: cetuximab added to platinum/5-FU, first-line R/M-SCCHN; cited from earlier work

In the case of Cetuximab, the “Improvement of median overall survival (OS) versus chemotherapy alone” value is given as 2.7 months.
